Ab-14 light chain CDR variants: yeast mating affinities

Binding partner: SARS-CoV-2 spike HR2 peptide, sequence PDVDLGDISGINAS.

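Variants in AAYL50 differ from the parent at up to three CDR positions; double and triple changes were sampled at random. Affinity was read by AlphaSeq, a pooled yeast mating assay with surface-displayed partners. Mating (16 h, 30 °C) was followed by selection of diploids and sequencing of their barcodes. Each replicate has its own calibration line, from reference interactions of the BCL2 family. There are three technical replicates.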

Each scFv is VH, a (GGGGS)3 linker, VL, as in the parent Ab-14, and differs from it in the CDRs of the light chain only.
VH: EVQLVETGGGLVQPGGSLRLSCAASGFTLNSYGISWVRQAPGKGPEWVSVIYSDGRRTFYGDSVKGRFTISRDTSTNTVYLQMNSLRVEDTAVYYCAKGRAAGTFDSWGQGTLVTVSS
VL: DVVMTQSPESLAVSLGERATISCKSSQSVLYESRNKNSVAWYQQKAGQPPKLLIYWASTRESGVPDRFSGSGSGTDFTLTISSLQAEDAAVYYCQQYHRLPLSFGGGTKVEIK

The parent's light chain CDRs are KSSQSVLYESRNKNSVA, WASTRES, QQYHRLPLS; each variant's own CDRs replace them letter for letter. Every variant below is changed at R99 of the VL (sequential numbering). Each Kd is an estimate from the mating assay, the geometric mean of the replicates in which the pair was seen; lower is stronger. An entry "nd" has no value in the source: the pair was not observed among the diploids in any replicate. This suggests poor binding but is not conclusive. The list is sorted by this average, lowest first, undetected variants last.

For KSSQSVLYESRNKHSEA / WASTRES / QQYHVLPLS, the assay gave 4.1 nM (3 of 3 replicates).
For KLSQSVLYESRYKNSVA / WASTRES / QQYHQLPLS, the assay gave 4.7 nM (3 of 3 replicates).
For KSSTSVLYESRNKNSVA / WASTRES / QQYHMRPLS, the assay gave 5.9 nM (3 of 3 replicates).
For KSSQSVLYESRNKNSVA / WASTRES / QQYHFLPLW, the assay gave 9.2 nM (3 of 3 replicates).
For KYSQSVLYEKRNKNSVA / WASTRES / QQYHWLPLS, the assay gave 13 nM (3 of 3 replicates).
For KSSQSVLYESRNKNSVA / WASTRMS / QQYHYLPLS, the assay gave 19 nM (3 of 3 replicates).
For KSSQSVFYESRNKNSVA / WAGTRES / QQYHALPLS, the assay gave 20 nM (3 of 3 replicates).
For KSMQYVLYESRNKNSVA / WASTRES / QQYHTLPLS, the assay gave 23 nM (3 of 3 replicates).
For KSSQSVKDESRNKNSVA / WASTRES / QQYHWLPLS, the assay gave 39 nM (3 of 3 replicates).
For KSSQSVLYESRNKNSVA / WASTREE / QQYHYMPLS, the assay gave 39 nM (3 of 3 replicates).
For KSSQSVLYESKNKNSVA / WASTRES / QQYHGLSLS, the assay gave 47 nM (3 of 3 replicates).
For KSSQSVLYESRNYQSVA / WASTRES / QQYHQLPLS, the assay gave 60 nM (3 of 3 replicates).
For KFSQSVLYESRNKNSVA / WASTMES / QQYHLLPLS, the assay gave 66 nM (3 of 3 replicates).
For KSSQSVLYMSRNKSSVA / WASTRES / QQYHILPLS, the assay gave 170 nM (3 of 3 replicates).
For KSSQSRLYESRNKNSVA / WASTRES / QQYHFLPLS, the assay gave 180 nM (3 of 3 replicates).
For KSSQSVWYESRNKISVA / WASTRES / QQYHLLPLS, the assay gave 220 nM (3 of 3 replicates).
For KSSQSVLYESRNKNSVA / WAATRES / QQYHLLPLS, the assay gave 270 nM (3 of 3 replicates).
For KSSQSVLYESRPKNSVA / WASTREC / QQYHSLPLS, the assay gave 470 nM (1 of 3 replicates).
For KSSQSVLYEMRNKNSVA / CASTRES / QQYHSLPLS, the assay gave 490 nM (3 of 3 replicates).
For KSSQSVLYESRKKNSAA / WASTRES / QQYHKLPLS, the assay gave 500 nM (1 of 3 replicates).
For KSSQSVLYEQRNKNSVA / WASTVES / QQYHALPLS, the assay gave 690 nM (3 of 3 replicates).
For KSSQSVLYESRNKNTVA / WASVRES / QQYHDLPLS, the assay gave 1.8 µM (1 of 3 replicates).
For KSSQSVLRESRNKNSVT / WASTRES / QQYHDLPLS, the assay gave 2.3 µM (1 of 3 replicates).
For KSSQSVLYESRNKNSVA / WASTMES / AQYHQLPLS, the assay gave 3.5 µM (1 of 3 replicates).
For KSSQSVLYESRNKNSVT / WASTRES / QQPHGLPLS, the assay gave 3.8 µM (1 of 3 replicates).
For KSSQSVLYESRNKNSVR / WAKTRES / QQYHALPLS, the assay gave 11 µM (2 of 3 replicates).
For KSSQSVLVESRNKNSVA / WPSTRES / QQYHHLPLS, the assay gave 12 µM (1 of 3 replicates).
For KSSQSVLYESRNKNSVA / WADTRES / QMYHELPLS, the assay gave 14 µM (2 of 3 replicates).
For KSSQSVLYESRNKNSVA / WCFTRES / QQYHILPLS, the assay gave 15 µM (2 of 3 replicates).
For KSSQSVLYESRNYNSVA / WASTRES / QQVHNLPLS, the assay gave 28 µM (1 of 3 replicates).
For KSSQSVLYESRNKNQVA / WQSTRES / QQYHLLPLS, the assay gave 60 µM (1 of 3 replicates).
For KSSQSVLYESRNKNSVA / FASTRES / QQYHHWPLS, the assay gave 98 µM (2 of 3 replicates).
For KSSQSVLYQSRDKNSVA / WASTRES / QQYHCLPLS, the assay gave 310 µM (1 of 3 replicates).
For KPSQSVLYESRNKNSVA / WASTRMS / QQYHELPLS, the assay gave nd (0 of 3 replicates).
For KSSQSVLYSSRNKNSVA / WASTRES / DQYHFLPLS, the assay gave nd (0 of 3 replicates).
For KSSQSVHYESRNKNSVA / WASTVES / QQYHFLPLS, the assay gave nd (0 of 3 replicates).
For KSSQSVLYEWRMKNSVA / WASTRES / QQYHTLPLS, the assay gave nd (0 of 3 replicates).
For KSSQEVLYESRNKNSVA / WASTRES / QQYRCLPLS, the assay gave nd (0 of 3 replicates).
For KSSQSVLYESRNKNSVA / LASTRES / QQRHALPLS, the assay gave nd (0 of 3 replicates).
For KSSQSVLYESINKNSVA / WASTRES / QQYHMLPLA, the assay gave nd (0 of 3 replicates).
For KSSQSVLYMSRNKNSQA / WASTRES / QQYHSLPLS, the assay gave nd (0 of 3 replicates).
For KSSQSVLYESRNKNKVA / WASTREG / QQYHILPLS, the assay gave nd (0 of 3 replicates).
For KSSQSVLYESRNKNSVN / WASTIES / QQYHSLPLS, the assay gave nd (0 of 3 replicates).
For KSSQSVLYESRNKNLVA / WASTRES / IQYHMLPLS, the assay gave nd (0 of 3 replicates).

7 of these entries, quoted again:

CDR-L1	CDR-L2	CDR-L3	Kd	replicates with signal
KSSQSVLYESRKKNSAA	WASTRES	QQYHKLPLS	500 nM	1 of 3
KYSQSVLYEKRNKNSVA	WASTRES	QQYHWLPLS	13 nM	3 of 3
KSSQSVLVESRNKNSVA	WPSTRES	QQYHHLPLS	12 µM	1 of 3
KSSQSVLYESRNKNKVA	WASTREG	QQYHILPLS	nd	0 of 3
KSSQSVLRESRNKNSVT	WASTRES	QQYHDLPLS	2.3 µM	1 of 3
KSSQSVLYESRNKNLVA	WASTRES	IQYHMLPLS	nd	0 of 3
KSSQSVLYESRNKNSVR	WAKTRES	QQYHALPLS	11 µM	2 of 3

Empty control strains, which show no peptide, gave a signal in 18% of pairings with library AAYL50; the median was 15 µM and 95% of these signals were weaker than 970 nM. No background was subtracted. For reference, the parent read 4.4 nM as the reference entry and 48 nM as a member of this library.

Reference: Engelhart et al. 2022, doi:10.1038/s41597-022-01779-4. File: FLAb, binding data.